Assay results as given in PubChem BioAssay (NCI).
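Protocol summary: plate cells (96-well), add compound at 5 concentrations, incubate 48 h, interpolate endpoints linearly. Here, GI50 denotes the concentration required for 50% inhibition of growth. TGI: total growth inhibition.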

What was measured:
Test in all cases: inhibition of tumour cell growth, NCI panel, 48 h
[1] = tested on: A549 NSCLC
[2] = tested on: NCI-H460 lung
[3] = tested on: OVCAR-3 ovarian
[4] = tested on: NCI-H322M lung
[5] = tested on: SF-295 CNS
[6] = tested on: CAKI-1 renal
[7] = tested on: RXF 393 renal
[8] = tested on: HOP-92 NSCLC
[9] = tested on: SNB-19 CNS
[10] = tested on: SK-OV-3 ovarian
[11] = tested on: SK-MEL-2 melanoma
[12] = tested on: RPMI-8226 leukemia
[13] = tested on: NCI-H522 lung
[14] = tested on: U251 CNS
[15] = tested on: HT29 colon
[16] = tested on: MDA-MB-435
[17] = tested on: M14 melanoma
[18] = tested on: ACHN renal
[19] = tested on: BT-549 breast
[20] = tested on: HS 578T breast
[21] = tested on: UO-31 renal
[22] = tested on: HCT-116 colon
[23] = tested on: SR leukemia
[24] = tested on: MDA-MB-231 breast
[25] = tested on: A498 renal
[26] = tested on: HOP-62 NSCLC
[27] = tested on: HCT-15 colon
[28] = tested on: MALME-3M melanoma
[29] = tested on: SW-620 colon
[30] = tested on: MCF7 breast
[31] = tested on: MOLT-4 leukemia
[32] = tested on: OVCAR-4 ovarian
[33] = tested on: EKVX NSCLC
[34] = tested on: SF-539 CNS
[35] = tested on: NCI-H226 lung
[36] = tested on: NCI-H23 lung
[37] = tested on: UACC-257 melanoma
[38] = tested on: UACC-62 melanoma
[39] = tested on: OVCAR-5 ovarian
[40] = tested on: NCI/ADR-RES ovarian
[41] = tested on: 786-0 renal
[42] = tested on: SF-268 CNS
[43] = tested on: IGROV1 ovarian
[44] = tested on: MDA-N
[45] = tested on: DU-145 prostate
[46] = tested on: LOX IMVI melanoma
[47] = tested on: SNB-75 CNS
[48] = tested on: COLO 205 colon
[49] = tested on: OVCAR-8 ovarian
[50] = tested on: SK-MEL-5 melanoma
[51] = tested on: K-562 leukemia
[52] = tested on: KM12 colon
[53] = tested on: SK-MEL-28 melanoma
[54] = tested on: SN12C renal
[55] = tested on: T-47D breast
[56] = tested on: TK-10 renal
[57] = tested on: PC-3 prostate

SMILES: O=C(CO)Nc1ccc([As](=O)(O)O)cc1
- GI50 [1]: > 100 µM
- TGI [1]: > 100 µM
- GI50 [2]: > 100 µM
- TGI [2]: > 100 µM
- GI50 [3]: > 100 µM
- TGI [3]: > 100 µM
- GI50 [4]: > 100 µM
- TGI [4]: > 100 µM
- GI50 [5]: > 100 µM
- TGI [5]: > 100 µM
- GI50 [6]: > 100 µM
- TGI [6]: > 100 µM
- GI50 [7]: > 100 µM
- TGI [7]: > 100 µM
- GI50 [8]: > 100 µM
- TGI [8]: > 100 µM
- GI50 [9]: > 100 µM
- TGI [9]: > 100 µM
- GI50 [10]: > 100 µM
- TGI [10]: > 100 µM
- GI50 [11]: > 100 µM
- TGI [11]: > 100 µM
- GI50 [12]: > 100 µM
- TGI [12]: > 100 µM
- GI50 [13]: > 100 µM
- TGI [13]: > 100 µM
- GI50 [14]: > 100 µM
- TGI [14]: > 100 µM
- GI50 [15]: > 100 µM
- TGI [15]: > 100 µM
- GI50 [16]: > 100 µM
- TGI [16]: > 100 µM
- GI50 [17]: > 100 µM
- TGI [17]: > 100 µM
- GI50 [18]: > 100 µM
- TGI [18]: > 100 µM
- GI50 [19]: > 100 µM
- TGI [19]: > 100 µM
- GI50 [20]: > 100 µM
- TGI [20]: > 100 µM
- GI50 [21]: > 100 µM
- TGI [21]: > 100 µM
- GI50 [22]: > 100 µM
- TGI [22]: > 100 µM
- GI50 [23]: > 100 µM
- TGI [23]: > 100 µM
- GI50 [24]: > 100 µM
- TGI [24]: > 100 µM
- GI50 [25]: > 100 µM
- TGI [25]: > 100 µM
- GI50 [26]: > 100 µM
- TGI [26]: > 100 µM
- GI50 [27]: > 100 µM
- TGI [27]: > 100 µM
- GI50 [28]: > 100 µM
- TGI [28]: > 100 µM
- GI50 [29]: > 100 µM
- TGI [29]: > 100 µM
- GI50 [30]: > 100 µM
- TGI [30]: > 100 µM
- GI50 [31]: > 100 µM
- TGI [31]: > 100 µM
- GI50 [32]: > 100 µM
- TGI [32]: > 100 µM
- GI50 [33]: > 100 µM
- TGI [33]: > 100 µM
- GI50 [34]: > 100 µM
- TGI [34]: > 100 µM
- GI50 [35]: > 100 µM
- TGI [35]: > 100 µM
- GI50 [36]: > 100 µM
- TGI [36]: > 100 µM
- GI50 [37]: > 100 µM
- TGI [37]: > 100 µM
- GI50 [38]: > 100 µM
- TGI [38]: > 100 µM
- GI50 [39]: > 100 µM
- TGI [39]: > 100 µM
- GI50 [40]: > 100 µM
- TGI [40]: > 100 µM
- GI50 [41]: > 100 µM
- TGI [41]: > 100 µM
- GI50 [42]: > 100 µM
- TGI [42]: > 100 µM
- GI50 [43]: > 100 µM
- TGI [43]: > 100 µM
- GI50 [44]: > 100 µM
- TGI [44]: > 100 µM
- GI50 [45]: > 100 µM
- TGI [45]: > 100 µM
- GI50 [46]: > 100 µM
- TGI [46]: > 100 µM
- GI50 [47]: > 100 µM
- TGI [47]: > 100 µM
- GI50 [48]: > 100 µM
- TGI [48]: > 100 µM
- GI50 [49]: > 100 µM
- TGI [49]: > 100 µM
- GI50 [50]: > 100 µM
- TGI [50]: > 100 µM
- GI50 [51]: > 100 µM
- TGI [51]: > 100 µM
- GI50 [52]: > 100 µM
- TGI [52]: > 100 µM
- GI50 [53]: > 100 µM
- TGI [53]: > 100 µM
- GI50 [54]: > 100 µM
- TGI [54]: > 100 µM
- GI50 [55]: > 100 µM
- TGI [55]: > 100 µM
- GI50 [56]: > 100 µM
- TGI [56]: > 100 µM
- GI50 [57]: > 100 µM
- TGI [57]: > 100 µM
